{"source": "patent US20240156764A1", "about": "“INHIBITION OF URACIL DNA GLYCOSYLASE IN THE OPEN CONFORMATION” (CASE WESTERN RESERVE UNIVERSITY, priority 2022, published 2024)", "key": {"[1]": {"test_system": "hypoxanthine:T (MPG) repair in MCF-7 cells", "experiment": "Host-cell reactivation assay, hypoxanthine:T reporter, MCF-7", "type": "cell-based, human", "details": "ATA 2.5 μM", "protocol": "(§1) FIGS. 7(A-B) illustrate measurement of ATA inhibition on uracil, 8oxoG:C, A:8oxoG:C, Hypoxanthine:T and T:G repairs in MCF-7 cells using a host-cell reactivation assay with doses. Panel A: 1.25 μM and panel B: 2.5 μM. Reporter expression was calculated for each dose of ATA as described in prior publications and normalized to DMSO treatment.\n(§2) Removal of uracil in cells was measured using a reporter plasmid containing a dU:dG base pair (referred to as BFP_U), as described previously. In brief, dU is substituted into the transcribed strand at position 191 of the blue fluorescent protein (BFP) gene. When RNA polymerase II incorporates dA opposite dU, transcripts encoding wild type BFP are produced. Upon repair, dU is replaced by dC, leading to production of transcripts encoding a non-fluorescent protein. […] A corresponding cocktail of damage-free plasmids containing pmax BFP (100 ng per transfection), pmax GFP (100 ng per transfection), and carrier plasmid (800 ng per transfection) constituted the “undamaged” cocktail. […] The reciprocal of BFP_U reporter expression was calculated for each experimental condition. […] This creates a premature stop codon, completely abolishing fluorescence. Removal of thymidine followed by insertion of dC opposite dG restores reporter fluorescence."}, "[2]": {"test_system": "uracil removal in UDG-knockout HAP cells", "experiment": "Host-cell reactivation assay, uracil removal, UDG-knockout HAP cells", "type": "cell-based, human", "details": "ATA 5 μM; from ~0.3 without ATA", "protocol": "(§3) FIG. 6(A-B) illustrate measurement of ATA in vivo using a host-cell reactivation assay. A: MCF-7 cells were seeded at 50,000 cells per well in a 12-well plate. B: HAP cells (wild type or UNG gene knockout) were seeded at 75,000 cells per well in a 6-well plate. Cells were allowed to adhere overnight and then cells in duplicate wells were treated with DMSO or ATA (2.5, 5, or 10 μM) for 24 hr (refer to methodology). After 24 hours, cells were dissociated by trypsinization and analyzed by flow cytometry using an Atune NxT flow cytometer. Gating and compensation were determined by transfection of single-color controls. Reporter expression was calculated for each dose of ATA as previously described in publications and normalized to DMSO treatment.\nRemoval of uracil in cells was measured using a reporter plasmid containing a dU:dG base pair (referred to as BFP_U), as described previously. In brief, dU is substituted into the transcribed strand at position 191 of the blue fluorescent protein (BFP) gene. When RNA polymerase II incorporates dA opposite dU, transcripts encoding wild type BFP are produced. […] The reciprocal of BFP_U reporter expression was calculated for each experimental condition. […] This creates a premature stop codon, completely abolishing fluorescence. Removal of thymidine followed by insertion of dC opposite dG restores reporter fluorescence. […]"}, "[3]": {"test_system": "uracil removal (U:G base pair) in MCF-7 cells", "experiment": "Host-cell reactivation assay, uracil removal from reporter plasmid, MCF-7", "type": "cell-based, human", "details": "ATA 2.5 μM", "protocol": "as §3, §1\nRemoval of uracil in cells was measured using a reporter plasmid containing a dU:dG base pair (referred to as BFP_U), as described previously. […] The reciprocal of BFP_U reporter expression was calculated for each experimental condition. […] This creates a premature stop codon, completely abolishing fluorescence. […]"}, "human UDG [4]": {"molecular_target": "T1, human UDG (Homo sapiens, UniProt P13051)", "experiment": "UDG protein thermal shift with Sypro orange dye", "type": "binding", "details": "fluorescence dye thermal shift", "protocol": "FIGS. 3(A-C) illustrate ATA directly binds and destabilizes the human UDG protein. A: ATA binding to UDG measured by MST. ATA (30 nM to 500 μM) was titrated into a fixed concentration of labeled UDG (100 nM). The data for thermophoresis was recorded at 20° C. using the blue LED at 20% and IR-Laser at 40%. The isotherm derived from the raw data and fitted according to the law of mass action. […] Monitoring of fluorescence took place for 2 hr (Bioraid CFX96, Hex filter, 25-97° C., 1.6° C./2 min). Negative (−) derivative RFU raw data and plots from the machine were obtained and analyzed. […] C: Monitoring the thermal stability of UDG in the presence of titrating concentrations of ATA through intrinsic tryptophan fluorescence. […]\nFIGS. 10(A-D) illustrate UDG thermal shift. […] Each plate was incubated 60 min at room temperature before the monitoring of fluorescence took place about 2 hr (Biorad CFX96, Hex filter, 25° C.-97C, 1.6° C./2 min). […] Each plate was incubated 60 min at room temperature before the monitoring of fluorescence took place about 2 hr (Biorad CFX96, Hex filter, 25° C.-97° C., increment of 1.6° C./2 min). […]"}, "[5]": {"test_system": "8oxoG:C (OGG1) repair in MCF-7 cells", "experiment": "Host-cell reactivation assay, 8oxoG:C reporter, MCF-7", "type": "cell-based, human", "details": "ATA 2.5 μM", "protocol": "as §1, §2"}, "human UDG [6]": {"molecular_target": "T1, human UDG", "experiment": "Gel-based DNA cleavage assay with a single U:A basepair", "type": "biochemical", "parameters": "6xHis; purchased XTAL Biostructures; host or cells: Sf9 insect cells", "protocol": "20% polyacrylamide nucleic acid urea gel electrophoresis was used to resolve the DNA bands at room temperature, 200 v for 50 min. Analysis and quantification of DNA cleavage were done as follows. A background subtraction step was included using the 23mer from the DNA only lane. […] A single oxo-guanine: cytosine base pair DNA with a Cy3 fluorescent tag on the 3′ end was used (10 nM).\nFollowing pre-incubation occurred for 20 min at 37° C., 2 μL of U:A DNA (500 nM stock) was added to initiate the reaction, total reaction volume of 50 μL/well. Each plate was incubated for 120 min at 37° C. Then, each 96 well plate was sealed and heated at a constant temperature of 95° C. for 55 min using the CFX96 real time system thermocycler. After the heating process, 5 μL of a bromophenol blue denaturing loading dye (20milligrams of bromophenol blue, 9.7 ml of formamide plus 300 μL of 10M NaOH) was added to each reaction well. […] TBE buffer was prepared by dissolving 54 grams of tris base, 28 grams of boric acid, and 4.5 grams of EDTA in 1.0 liter of distilled H2O. Gels were processed at 200V for 60 min in the dark. […] Gel data were analyzed using ImageJ software. […] Percent cleavage was calculated by using fluorescence intensity of the cleaved 23-mer DNA strand divided by the sum of the fluorescence bands (23mer+40mer DNA strands)*100. […]"}}, "data": [{"compound": "O=C(O)C1=CC(=C(c2ccc(O)c(C(=O)O)c2)c2ccc(O)c(C(=O)O)c2)C=CC1=O", "note": "[ATA, aurintricarboxylic acid]", "values": [{"measurement": "reduction in relative repair of hypoxanthine:T", "setting": "[1]", "value": 0.35}, {"measurement": "relative uracil removal in UDG-knockout cells", "setting": "[2]", "value": "~0.1"}, {"measurement": "reduction in relative repair of uracil", "setting": "[3]", "value": 0.58}, {"measurement": "destabilization of the human UDG protein (thermal shift)", "setting": "human UDG [4]", "value": "dose-dependent destabilization"}, {"measurement": "reduction in relative repair of 8oxoG:C", "setting": "[5]", "value": 0.13}, {"measurement": "difference of IC50, OGG1 vs UDG", "setting": "human UDG [6]", "value": 5, "unit": "fold"}]}]}
